One molecule from BindingDB's records for doi:10.1021/jm9600813 (National Institute of Diabetes and Digestive and Kidney …, 1996) can be followed below.

For this assay, the target named is Sigma non-opioid intracellular receptor 1 (Cavia porcellus) (UniProt Q60492). As to the kind of experiment: Displacement of [3H](+)-pentazocine from Sigma opioid receptor type 1 in guinea pig brain membrane. For orientation: Loss of bound radioactivity is the signal in a displacement assay; it reports binding, not function.

For `COc1ccccc1CC(=O)N(C)CCN1CCCC1` [2-(2-Methoxy-phenyl)-N-methyl-N-(2-pyrrolidin-1-yl-ethyl)-acetamide], the affinity corresponds to a Ki of 5.46 µM.

Usually Ki stands for the equilibrium dissociation constant of an inhibitor or competing ligand from its target. A higher Ki goes with a looser hold on the target.
